Values joined by “and” are separate entries in the source; they are usually repeats but may differ in a detail not shown here. Identical values can stand only once.
Tests used:
[1] = system: pChk2; conditions: DC injury, dosing every 24 hrs, pilot dose finding 1-10 μg
Experimental: (§1) DC crush injury model. Rats were injected subcutaneously with 0.05 ml Buprenorphine to provide analgesia prior to surgery and anaesthetised using 5% of Isoflurane in 1.8 ml/l of O2 with body temperature and heart rate monitored throughout surgery.
(§2) Chk2 inhibition studies in the DC crush injury model. […] Chk1i (LY2603618) was used at equimolar concentrations for each experiment. Rats were killed in a rising concentration of CO2 at either 28 d for immunohistochemistry and western blot analyses or 6 weeks for electrophysiology and functional tests.
Sham treated animals (partial laminectomy but no DC injury) were also included as additional controls. At 4 weeks after DC injury and treatment, ipsilateral L4/L5 DRG pairs were harvested, total RNA extracted using Trizol reagent as described above and knock down of Chk1 and Chk2 mRNA knockdown using quantitative qRT-PCR, as described above. Contralateral L4/L5 DRG pairs were treated the same as above and used as controls. […] This included western blot to determine pChk1 and pChk2 levels after shChk2 treatment. […]
(§3) Protein extraction and western blot analysis. […] For densitometry, western blots were scanned into Adobe Photoshop (Adobe Systems Inc, San Jose, Calif., USA) and analysed using the built-in-macros for gel analysis in ImageJ (NIH, USA, http://imagej.nih.clov/ij).

[2] = system: T8 dorsal column (DC) crush model of spinal cord injury; assay: DC crush injury model: electrophysiology (compound action potentials); format: in vivo, rat; conditions: 6 weeks after DC injury; for negative CAP amplitudes: different stimulation intensities
Experimental: as §1, §2
Electrophysiology. […] Briefly, with the experimenter masked to the treatment conditions, silver wire electrodes applied single-current pulses (0.05 ms) through a stimulus isolation unit in increments (0.2, 0.3, 0.6, 0.8, and 1.2 mA) at L1-L2 and compound action potentials (CAP) were recorded at C4-C5 along the surface of the midline spinal cord. Spike 2 software was then used to calculate CAP amplitudes between the negative deflection after the stimulus artifact and the next peak of the wave. CAP area was calculated by rectifying the negative CAP component (full-wave rectification) and measuring its area. At the different stimulation intensities. […] Representative CAP traces are processed output data from Spike 2 software.

[3] = system: T8 dorsal column (DC) crush model of spinal cord injury; assay: DC crush injury model: tape sensing and removal test (sensory function); format: in vivo, rat
Experimental: as §1, §2
Functional tests. […] Experiments were performed by 2 observers (treatment conditions were masked) in the same order, the same time of day and each test performed for 3 individual trials.

[4] = system: RGC; assay: Glaucoma model: RGC survival in retinal wholemounts; format: in vivo, rat; conditions: 30 days after induction of glaucoma
Experimental: Induction of glaucoma. […] At day zero, a self-sealing incision was made though the cornea into the anterior chamber enabling twice weekly intracameral injections of 3.5 μl of TGFβ2 (5 ng/μl) using glass micropipettes for 30 days. Vehicle, comprising saline, was injected in control groups. Intraocular pressure was measured using an iCare Tonolab rebound tonometer (Icare, Helsinki, Finland).
(§4) Assessment of RGC survival.

[5] = system: RGC; assay: Optic neuritis model: RGC survival (Fluorgold backfilled wholemounts); format: in vivo, mice; conditions: 21 days after induction
Experimental: (§5) Induction of optic neuritis. […] Animals were intraperitoneally injected with 150 ng Bordetella pertussis toxin on day 0 and 2. Animals were monitored daily and assessed for the development of EAE. At the end of the experiment, animals were then killed by CO2 overdose.
as §4

[6] = system: retinal nerve fibre layer; assay: Optic neuritis model: RNFL thickness by OCT; format: in vivo, mice; conditions: day 21
Experimental: as §5
Measurement of RNFL thinning using optical coherence tomography (OCT). […] Examinations were recorded in both right (oculus dextrus, OD) and left eyes (oculus sinister, OS) of each animal at day 0 and day 21 after immunisation. […] A RNFL single exam using the automatic real time (ART) mode (allows averaging of 100 recordings) was produced for each mouse eye, which automatically measured RNFL thickness (μm) in a 30° circle surrounding the optic nerve head.

[7] = system: pChk2^T68 and pChk2^T383; conditions: western blot and densitometry
Experimental: Rat DRGN and retinal cultures. […] Cells were cultured for 4 days in a humidified chamber at 37° C. and 5% CO2 before being subjected to quantitative RT-PCR or immunocytochemistry, as described below.
as §3

Compound	amount required to optimally reduce pChk2 levels by intrathecal delivery [1]	CAP area at different stimulation intensities [2]	negative CAP amplitudes [2]	time after treatment at which mean tape sensing/removal times are restored to normal [3] [weeks]	RGC survival in glaucoma [4]	RGC survival in optic neuritis [5]	RNFL thickness in optic neuritis [6]	Chk2 phosphorylation (pChk2^T68, pChk2^T383) in DRGN cultures [7]
NC(=O)c1ccc2[nH]c(-c3ccc(Oc4ccc(Cl)cc4)cc3)nc2c1 [BML-277]	3 μg and 5 μg	improved significantly	restored	4	protect against RGC death	protected from death	preserved	–
COc1cc2nc(-c3cc(F)ccc3O)nc(N[C@@H]3CNC[C@H]3C(C)(C)O)c2cc1OC [CCT241533]	–	–	–	–	–	–	–	suppressed Chk2 phosphorylation
COc1cccc(OCCCN)c1-c1cc(Nc2cnc(C#N)cn2)n[nH]1 [Prexasertib]	3 μg	improved significantly	restored	3	protect against RGC death	protected from death	preserved	–
